This note sets out measurements from PMC12007268.

The test has as its target human neonatal Fc receptor as used in the ELISA (construct not stated), P55899;P61769. As to the kind of experiment: ELISA. The conditions noted are these: pH 7.4; read off a plot.
In turn, “trastuzumab (wild-type Fc) L309Y; Q311M; M428L” had a response of 0.19 OD450.

The substance trastuzumab (wild-type Fc) Q311M; M428L displayed a response of 0.14 OD450.

“trastuzumab (wild-type Fc) L309E; Q311M; M428L” returned a response of 0.14 OD450. With trastuzumab (wild-type Fc) Q311R; M428L, the response is 0.13 OD450.
